Measurements reported in ChEMBL document CHEMBL1124051 (J Med Chem, 1988).
Several values for one entry are separate records, joined by “and”; a condition that tells them apart may be missing. Equal entries are not always repeated.

Sequences of proteins named here, by UniProt entry; tags and fusion partners are left off.
UniProt P33535, whole entry, looked up: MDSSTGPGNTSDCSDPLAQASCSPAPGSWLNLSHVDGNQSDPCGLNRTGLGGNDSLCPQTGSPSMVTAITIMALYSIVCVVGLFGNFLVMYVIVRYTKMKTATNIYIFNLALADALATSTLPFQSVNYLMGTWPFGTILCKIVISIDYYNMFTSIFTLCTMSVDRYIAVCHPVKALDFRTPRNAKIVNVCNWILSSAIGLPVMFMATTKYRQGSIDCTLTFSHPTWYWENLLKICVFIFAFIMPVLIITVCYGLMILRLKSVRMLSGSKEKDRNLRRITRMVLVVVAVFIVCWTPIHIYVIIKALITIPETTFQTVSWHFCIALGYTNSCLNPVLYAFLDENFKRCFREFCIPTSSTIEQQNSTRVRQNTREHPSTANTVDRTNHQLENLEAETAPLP

Experiments:
[1] = target: Mu-type opioid receptor (Rattus norvegicus) (UniProt P33535); assay: Binding constant for the agonist state was measured for its ability to displace [3H]naloxone from opioid mu 1 receptor buffered homogenate of rat brain membranes; details: Membrane
[2] = target: Mu-type opioid receptor (Rattus norvegicus) (UniProt P33535); assay: Binding constant for the antagonist state was measured for its ability to displace [3H]naloxone from opioid mu 1 receptor buffered homogenate of rat brain membranes; details: Membrane

SMILES | KT [1] | Kp [2]
CN1CCC23c4c5cccc4OC2CCCC3C1C5 (stereo unspecified) | 15.8 | 10.8
C[C@H]1[C@@H]2Cc3ccc(O)cc3[C@]1(C)CCN2C [METAZOCINE] | 18.1 | 13.1
CN1CCC23c4c5cccc4OC2C(=O)CCC3C1C5 (stereo unspecified) | 16 | 12.4
CC1C2Cc3ccc(O)cc3C1(C)CCN2Cc1ccco1 (stereo unspecified) | – | 14.1 and 19.2
CN1CCC23c4c5cccc4OC2C(O)C=CC3C1C5 (stereo unspecified) | 14.1 | 10.3
CN1CCC23c4c5ccc(O)c4OC2C(O)CCC3C1C5 (stereo unspecified) | 19 | 13.5
C[C@H]1[C@H]2Cc3ccc(O)cc3[C@]1(C)CCN2CC1CC1 [CYCLAZOCINE] | 22.2 | 21.3
C=CCN1CCC2(C)c3cc(O)ccc3CC1C2C (stereo unspecified) | 19.6 and 18.7 | 19.8 and 15.1
C=CCN1CCC23c4c5cccc4OC2C(O)CCC3C1C5 (stereo unspecified) | 14.1 | 14.6
C=CCN1CCC23c4c5ccc(O)c4OC2C(O)C=CC3C1C5 (stereo unspecified) | 19.7 | –
CC1C2Cc3ccc(O)cc3C1(C)CCN2Cc1ccoc1 (stereo unspecified) | – | 13.1 and 19.8
CN1CCC23c4c5cccc4OC2C(=O)CCC3(O)C1C5 (stereo unspecified) | 15.8 | 13
